This is an account of results in article PMC2727864 (Molecular cancer therapeutics, 2008).

As a reminder, the Kd is the equilibrium constant for the complex coming apart.

This experiment has as its target T1, PDK1 PH domain (Homo sapiens, UniProt O15530).
T1 sequence (O15530 407-549): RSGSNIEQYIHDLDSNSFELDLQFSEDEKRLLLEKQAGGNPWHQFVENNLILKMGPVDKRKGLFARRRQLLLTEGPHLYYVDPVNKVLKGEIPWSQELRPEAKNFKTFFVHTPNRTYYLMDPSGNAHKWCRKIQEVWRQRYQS
Briefly: Surface plasmon resonance. The class given is binding.

Turning to `CC1=NN(C(=O)c2ccc(Cl)cc2)C(=O)C1N=Nc1ccc(S(=O)(=O)Nc2ncccn2)cc1` (stereo not shown) [Compound 1, 4-[1-(4-Chlorobenzoyl)-3-methyl-5-oxo-4,5-dihydro-1H-pyrazol-4-ylazo]-N-pyrimidin-2-yl-benzenesulfonamide], the affinity, expressed as Kd, was 31.3 ± 9.54 µM.
